For this assay, the target named is cannabinoid type-1 receptors endogenously expressed in Neuro2A cells (Mus musculus, UniProt P47746). Kind of assay: Intracellular cAMP levels. Type of assay: cell-based. The settings on record: concentration-effect curve, intact Neuro2A cells, 10 μM forskolin. For orientation: Changes in cAMP serve as a functional read-out for many G protein-coupled receptors.

By UniProt entry, the sequences of proteins in these tests, tags left out.
UniProt P47746, whole entry: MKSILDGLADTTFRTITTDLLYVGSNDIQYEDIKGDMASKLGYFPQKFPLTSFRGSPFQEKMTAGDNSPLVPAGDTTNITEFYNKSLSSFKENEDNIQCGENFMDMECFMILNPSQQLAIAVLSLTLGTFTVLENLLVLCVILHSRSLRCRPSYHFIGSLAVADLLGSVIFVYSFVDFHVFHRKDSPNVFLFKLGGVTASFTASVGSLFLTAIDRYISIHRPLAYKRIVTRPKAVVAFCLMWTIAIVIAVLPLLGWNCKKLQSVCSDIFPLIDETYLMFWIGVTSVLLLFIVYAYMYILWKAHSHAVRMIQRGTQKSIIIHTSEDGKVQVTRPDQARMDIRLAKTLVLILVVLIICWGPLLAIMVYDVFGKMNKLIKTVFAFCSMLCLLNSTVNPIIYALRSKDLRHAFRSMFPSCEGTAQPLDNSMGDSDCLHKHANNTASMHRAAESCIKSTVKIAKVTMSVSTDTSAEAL

Values joined by “and” are separate entries in the source; they are usually repeats but may differ in a detail not shown here. Equal entries are not always repeated.

Turning to `Cc1c(C(=O)c2cccc3ccccc23)c2cccc3c2n1[C@H](CN1CCOCC1)CO3` [WIN-55,212-2], the “Adenylyl Cyclase Inhibition Imax (% Inhibition)” value is 40.3 ± 1.2 % Inhibition and 40.3 ± 1.2^a % Inhibition.
